From US20210115124A1 (Genentech, published 2021)

Sequences of proteins named here, by UniProt entry; tags and fusion partners are left off. A line that says so, or that is headed by a name, gives the form on record, which may keep a tag or linker.
UniProt P15692, other isoform, or with tags, fused parts or gaps limits assumed: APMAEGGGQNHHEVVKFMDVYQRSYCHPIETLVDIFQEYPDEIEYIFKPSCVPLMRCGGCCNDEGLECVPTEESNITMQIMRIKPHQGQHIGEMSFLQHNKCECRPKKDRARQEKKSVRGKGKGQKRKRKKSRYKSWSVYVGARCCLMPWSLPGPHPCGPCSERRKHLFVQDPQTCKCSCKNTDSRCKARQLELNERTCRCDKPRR

How the values were obtained:
human VEGF (hVEGF) [1] = target: T1, human VEGF (hVEGF) (human, UniProt P15692 181-395); assay: BIACORE SPR on immobilised hVEGF; label beside the mutation on the structure of the VEGF-bound G6 Fab (PDB 2FJG)
T1 construct: also called VEGF-A

human VEGF (hVEGF) [2] = target: T1, human VEGF (hVEGF); assay: SPR single-cycle

fold change in binding affinity (Kd) compared to G6.31 (human VEGF (hVEGF) [1]): 2 x
Fold difference (relative to G6.31) (human VEGF (hVEGF) [2]): 2.1 fold
Kd (human VEGF (hVEGF) [2]): 0.73 nM
koff (human VEGF (hVEGF) [2]): 0.000341 s⁻¹
kon (human VEGF (hVEGF) [2]): 464000 M⁻¹ s⁻¹
B1: G6.31 HC-V2R (Fab, name in Kabat numbering, V domains shown)
VH: ERQLVESGGGLVQPGGSLRLSCAASGFTISDYWIHWVRQAPGKGLEWVAGITPAGGYTYYADSVKGRFTISADTSKNTAYLQMNSLRAEDTAVYYCARFVFFLPYAMDYWGQGTLVTVSS
VL: DIQMTQSPSSLSASVGDRVTITCRASQDVSTAVAWYQQKPGKAPKLLIYSASFLYSGVPSRFSGSGSGTDFTLTISSLQPEDFATYYCQQGYGNPFTFGQGTKVEIK
notes: Fab
